Protein sequences, listed by entry. Tags and fused reporters are not part of them. Residues count along the entry.
UniProt P32241, 31-457: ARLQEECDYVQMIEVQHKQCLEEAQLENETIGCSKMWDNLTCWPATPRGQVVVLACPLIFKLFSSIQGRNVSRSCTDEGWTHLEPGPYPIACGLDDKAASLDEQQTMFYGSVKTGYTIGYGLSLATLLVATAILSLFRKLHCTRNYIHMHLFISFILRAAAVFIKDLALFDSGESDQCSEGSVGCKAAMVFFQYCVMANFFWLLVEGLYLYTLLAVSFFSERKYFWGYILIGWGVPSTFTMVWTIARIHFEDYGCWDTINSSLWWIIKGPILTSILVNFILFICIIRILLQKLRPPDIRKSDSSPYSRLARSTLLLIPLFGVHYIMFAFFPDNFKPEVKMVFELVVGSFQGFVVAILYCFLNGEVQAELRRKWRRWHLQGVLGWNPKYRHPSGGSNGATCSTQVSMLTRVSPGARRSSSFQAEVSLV

According to patent publication US10793631B2, “Human PAC1 antibodies” (AMGEN INC., priority 2013, dated 2020):

Columns and labels:
VPAC1 = VPAC1 (Homo sapiens, UniProt P32241); assay: Activity and selectivity of PAC1 agonists on VPAC1; assay type: cell-based; details: relative to PAC1
VPAC2 = target: T1, VPAC2 (Homo sapiens, UniProt P41587); assay: Activity and selectivity of PAC1 agonists on VPAC2; assay type: cell-based; details: relative to PAC1
T1 sequence (P41587 24-438): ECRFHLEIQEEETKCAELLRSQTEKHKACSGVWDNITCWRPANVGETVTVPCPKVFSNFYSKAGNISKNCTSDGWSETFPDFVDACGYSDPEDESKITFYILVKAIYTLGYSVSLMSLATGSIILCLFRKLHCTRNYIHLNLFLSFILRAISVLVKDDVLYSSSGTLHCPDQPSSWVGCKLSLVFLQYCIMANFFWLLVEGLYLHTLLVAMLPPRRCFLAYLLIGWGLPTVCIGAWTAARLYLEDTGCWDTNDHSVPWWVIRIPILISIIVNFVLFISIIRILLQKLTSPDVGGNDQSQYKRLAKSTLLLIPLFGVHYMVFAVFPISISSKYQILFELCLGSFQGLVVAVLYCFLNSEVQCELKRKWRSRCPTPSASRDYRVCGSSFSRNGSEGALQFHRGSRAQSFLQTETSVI

CC[C@H](C)[C@H](NC(=O)[C@H](CO)NC(=O)[C@H](CC(N)=O)NC(=O)[C@H](CC(C)C)NC(=O)[C@H](Cc1ccc(O)cc1)NC(=O)[C@H](CCCCN)NC(=O)[C@H](CCCCN)NC(=O)[C@@H](NC(=O)[C@H](C)NC(=O)[C@H](CCSC)NC(=O)[C@H](CCC(N)=O)NC(=O)[C@H](CCCCN)NC(=O)[C@H](CCCNC(=N)N)NC(=O)[C@H](CC(C)C)NC(=O)[C@H](CCCNC(=N)N)NC(=O)[C@@H](NC(=O)[C@H](Cc1ccc(O)cc1)NC(=O)[C@H](CC(N)=O)NC(=O)[C@H](CC(=O)O)NC(=O)[C@@H](NC(=O)[C@H](Cc1ccccc1)NC(=O)[C@@H](NC(=O)[C@H](C)NC(=O)[C@H](CC(=O)O)NC(=O)[C@H](CO)NC(=O)[C@@H](N)Cc1c[nH]cn1)C(C)C)[C@@H](C)O)[C@@H](C)O)C(C)C)C(=O)N[C@@H](CC(C)C)C(=O)N[C@@H](CC(N)=O)C(N)=O [VIP, vasoactive intestinal polypeptide]
higher activity on VPAC1 than on PAC1 (VPAC1): 10-100 ×
higher activity on VPAC2 than on PAC1 (VPAC2): 10-100 ×
